Earlier results on one substance are cited in patent publication US11173139B2, “Method for extending lifespan delaying the onset of age-related disease” (priority 2004, dated 2021).

For one data set, the system named is brain mitochondrial DNA. To be noted: mice, kainic acid; cited from earlier work.
For data set [1] the following is noted: mice; cited from earlier work.

Regarding alpha-ketoglutarate, in the data set with brain mitochondrial DNA, the “protection of brain mitochondrial DNA” value is given as “protected brain mitochondrial DNA from damage”. The LD50 result in data set [1] is recorded as “above 5 g/kg of body weight”.
